Literature values as cited in patent US12714725B2, “Stabilization of selenite in a nutritional solution by dissolved oxygen” (BAXTER INTERNATIONAL INC., priority 2019, dated 2026).

Conditions: cited from earlier work

Row | Substance | Chemical form; Solubility in water [mg/mL]
1 | iron chloride [Fe] | 920
2 | manganese chloride [Mn] | 634
